Measured values reported in patent publication US20110251188A1, “ACENAPHTHO HETEROCYCLE COMPOUNDS, CYCLODEXTRIN INCLUSION COMPOUNDS AND COMPLEXES, AND USES IN THE MANUFACTURES OF BH3 PROTEIN ANALOGUE, BCL-2 FAMILY PROTEIN INHIBITORS THEREOF” (DALIAN UNIVERSITY OF TECHNOLOGY, priority 2008, published 2011).

Assay: phase solubility experiment (solubility in water before and after cyclodextrin inclusion or complexation)
Details: Table 1, compound per se, before inclusion

6-(thienyl-2-methylamino)-8-oxo-8H-acenaphtho[1,2-b]pyrrole-9-carbonitrile
Solubility of compounds: 0.37 µM
